The chains behind the UniProt entries cited, without tags or fusion partners. Where a name states a change or a piece, a line headed by the entry shows the natural chain unless it says otherwise. A line that says so, or that is headed by a name, gives the form on record, which may keep a tag or linker. Residues count along the entry.
UniProt P00533, 25-1210 limits assumed: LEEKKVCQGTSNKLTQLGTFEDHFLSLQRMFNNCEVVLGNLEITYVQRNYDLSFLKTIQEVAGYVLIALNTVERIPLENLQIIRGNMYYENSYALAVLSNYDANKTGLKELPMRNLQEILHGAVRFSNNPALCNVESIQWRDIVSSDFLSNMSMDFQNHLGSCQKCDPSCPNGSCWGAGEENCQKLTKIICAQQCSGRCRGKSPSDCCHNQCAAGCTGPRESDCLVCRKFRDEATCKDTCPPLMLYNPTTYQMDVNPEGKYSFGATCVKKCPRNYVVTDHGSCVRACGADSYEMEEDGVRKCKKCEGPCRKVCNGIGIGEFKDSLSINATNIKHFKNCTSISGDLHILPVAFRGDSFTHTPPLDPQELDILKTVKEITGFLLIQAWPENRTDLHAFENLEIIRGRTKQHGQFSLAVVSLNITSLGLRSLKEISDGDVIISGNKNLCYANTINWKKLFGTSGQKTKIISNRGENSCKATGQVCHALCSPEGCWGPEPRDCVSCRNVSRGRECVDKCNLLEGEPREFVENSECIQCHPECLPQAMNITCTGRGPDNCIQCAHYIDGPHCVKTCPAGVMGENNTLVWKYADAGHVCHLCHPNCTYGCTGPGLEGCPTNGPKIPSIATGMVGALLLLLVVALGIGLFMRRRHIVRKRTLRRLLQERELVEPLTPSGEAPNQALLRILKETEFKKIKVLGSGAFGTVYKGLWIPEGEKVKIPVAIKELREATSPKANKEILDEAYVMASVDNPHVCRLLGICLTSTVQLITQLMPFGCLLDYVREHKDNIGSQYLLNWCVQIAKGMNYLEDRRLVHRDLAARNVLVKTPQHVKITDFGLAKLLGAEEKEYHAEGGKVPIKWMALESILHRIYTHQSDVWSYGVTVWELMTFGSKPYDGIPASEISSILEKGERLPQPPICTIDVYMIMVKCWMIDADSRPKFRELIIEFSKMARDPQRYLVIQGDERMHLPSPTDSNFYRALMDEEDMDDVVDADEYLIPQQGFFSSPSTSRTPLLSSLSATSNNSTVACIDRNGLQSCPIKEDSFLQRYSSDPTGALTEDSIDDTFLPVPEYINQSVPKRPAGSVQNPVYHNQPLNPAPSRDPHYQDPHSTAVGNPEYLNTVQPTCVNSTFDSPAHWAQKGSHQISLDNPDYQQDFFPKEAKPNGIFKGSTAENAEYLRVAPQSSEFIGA
UniProt P00533, 25-1210 C797S/L858R limits assumed: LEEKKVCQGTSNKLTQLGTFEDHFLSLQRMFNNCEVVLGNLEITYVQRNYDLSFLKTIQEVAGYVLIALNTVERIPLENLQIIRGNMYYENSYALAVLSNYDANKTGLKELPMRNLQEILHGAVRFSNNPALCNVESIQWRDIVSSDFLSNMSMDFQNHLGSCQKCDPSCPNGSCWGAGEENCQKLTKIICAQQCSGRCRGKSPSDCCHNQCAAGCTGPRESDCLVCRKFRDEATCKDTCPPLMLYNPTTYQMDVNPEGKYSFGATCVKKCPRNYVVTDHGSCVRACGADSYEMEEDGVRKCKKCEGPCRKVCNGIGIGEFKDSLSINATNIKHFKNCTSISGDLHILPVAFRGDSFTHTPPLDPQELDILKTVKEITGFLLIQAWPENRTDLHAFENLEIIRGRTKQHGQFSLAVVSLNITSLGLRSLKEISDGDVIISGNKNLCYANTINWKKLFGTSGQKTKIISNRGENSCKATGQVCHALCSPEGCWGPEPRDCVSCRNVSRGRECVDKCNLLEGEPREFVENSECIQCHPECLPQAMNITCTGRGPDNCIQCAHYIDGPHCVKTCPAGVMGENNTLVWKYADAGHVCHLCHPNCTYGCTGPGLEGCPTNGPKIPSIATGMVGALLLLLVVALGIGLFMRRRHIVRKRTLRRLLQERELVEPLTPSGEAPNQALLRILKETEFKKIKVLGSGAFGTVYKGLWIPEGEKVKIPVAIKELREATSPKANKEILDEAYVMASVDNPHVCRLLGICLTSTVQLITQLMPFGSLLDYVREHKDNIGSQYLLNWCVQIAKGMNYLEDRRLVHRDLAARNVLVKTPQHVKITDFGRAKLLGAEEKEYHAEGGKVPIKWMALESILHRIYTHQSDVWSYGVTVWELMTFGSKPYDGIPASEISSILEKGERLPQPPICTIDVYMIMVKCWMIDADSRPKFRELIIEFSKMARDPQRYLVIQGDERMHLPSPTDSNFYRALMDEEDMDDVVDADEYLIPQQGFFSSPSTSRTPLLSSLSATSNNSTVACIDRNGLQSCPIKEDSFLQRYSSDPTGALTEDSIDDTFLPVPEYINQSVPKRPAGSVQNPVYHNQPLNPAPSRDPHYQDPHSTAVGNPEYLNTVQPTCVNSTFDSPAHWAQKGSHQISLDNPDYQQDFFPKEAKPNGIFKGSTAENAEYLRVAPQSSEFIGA
UniProt P00533, 25-1210 T790M/C797S/L858R limits assumed: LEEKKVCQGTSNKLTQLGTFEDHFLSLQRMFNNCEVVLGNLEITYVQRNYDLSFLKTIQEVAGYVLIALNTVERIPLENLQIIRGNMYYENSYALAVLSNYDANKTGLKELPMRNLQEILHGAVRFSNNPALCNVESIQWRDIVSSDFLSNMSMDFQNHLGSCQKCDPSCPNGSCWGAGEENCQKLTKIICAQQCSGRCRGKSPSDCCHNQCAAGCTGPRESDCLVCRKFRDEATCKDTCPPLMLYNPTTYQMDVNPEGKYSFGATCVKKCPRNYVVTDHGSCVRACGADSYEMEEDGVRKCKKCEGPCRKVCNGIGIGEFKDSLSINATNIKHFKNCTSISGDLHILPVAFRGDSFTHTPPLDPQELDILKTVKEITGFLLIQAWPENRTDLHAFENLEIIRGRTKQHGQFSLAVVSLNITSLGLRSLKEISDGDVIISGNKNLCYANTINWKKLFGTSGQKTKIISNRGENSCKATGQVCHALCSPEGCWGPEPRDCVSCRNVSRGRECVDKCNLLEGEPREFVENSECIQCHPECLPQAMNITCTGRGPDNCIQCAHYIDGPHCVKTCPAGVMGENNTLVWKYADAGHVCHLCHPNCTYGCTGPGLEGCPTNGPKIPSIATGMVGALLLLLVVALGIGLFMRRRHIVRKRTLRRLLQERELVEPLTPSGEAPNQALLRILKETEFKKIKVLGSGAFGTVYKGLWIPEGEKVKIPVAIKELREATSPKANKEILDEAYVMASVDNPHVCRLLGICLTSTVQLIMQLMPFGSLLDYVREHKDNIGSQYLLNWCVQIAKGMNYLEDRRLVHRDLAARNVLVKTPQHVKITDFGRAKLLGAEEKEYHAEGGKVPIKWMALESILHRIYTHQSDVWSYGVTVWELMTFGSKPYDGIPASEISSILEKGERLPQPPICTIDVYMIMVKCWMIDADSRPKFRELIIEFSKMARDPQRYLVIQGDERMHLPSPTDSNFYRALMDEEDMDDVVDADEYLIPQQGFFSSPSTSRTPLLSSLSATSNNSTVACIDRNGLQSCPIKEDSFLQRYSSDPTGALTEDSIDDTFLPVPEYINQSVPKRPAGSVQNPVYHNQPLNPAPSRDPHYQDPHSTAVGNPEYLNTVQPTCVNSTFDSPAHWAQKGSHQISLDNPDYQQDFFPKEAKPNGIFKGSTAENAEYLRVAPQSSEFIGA
UniProt P00533, with tags, fused parts or gaps DEL746-750/C797S limits assumed: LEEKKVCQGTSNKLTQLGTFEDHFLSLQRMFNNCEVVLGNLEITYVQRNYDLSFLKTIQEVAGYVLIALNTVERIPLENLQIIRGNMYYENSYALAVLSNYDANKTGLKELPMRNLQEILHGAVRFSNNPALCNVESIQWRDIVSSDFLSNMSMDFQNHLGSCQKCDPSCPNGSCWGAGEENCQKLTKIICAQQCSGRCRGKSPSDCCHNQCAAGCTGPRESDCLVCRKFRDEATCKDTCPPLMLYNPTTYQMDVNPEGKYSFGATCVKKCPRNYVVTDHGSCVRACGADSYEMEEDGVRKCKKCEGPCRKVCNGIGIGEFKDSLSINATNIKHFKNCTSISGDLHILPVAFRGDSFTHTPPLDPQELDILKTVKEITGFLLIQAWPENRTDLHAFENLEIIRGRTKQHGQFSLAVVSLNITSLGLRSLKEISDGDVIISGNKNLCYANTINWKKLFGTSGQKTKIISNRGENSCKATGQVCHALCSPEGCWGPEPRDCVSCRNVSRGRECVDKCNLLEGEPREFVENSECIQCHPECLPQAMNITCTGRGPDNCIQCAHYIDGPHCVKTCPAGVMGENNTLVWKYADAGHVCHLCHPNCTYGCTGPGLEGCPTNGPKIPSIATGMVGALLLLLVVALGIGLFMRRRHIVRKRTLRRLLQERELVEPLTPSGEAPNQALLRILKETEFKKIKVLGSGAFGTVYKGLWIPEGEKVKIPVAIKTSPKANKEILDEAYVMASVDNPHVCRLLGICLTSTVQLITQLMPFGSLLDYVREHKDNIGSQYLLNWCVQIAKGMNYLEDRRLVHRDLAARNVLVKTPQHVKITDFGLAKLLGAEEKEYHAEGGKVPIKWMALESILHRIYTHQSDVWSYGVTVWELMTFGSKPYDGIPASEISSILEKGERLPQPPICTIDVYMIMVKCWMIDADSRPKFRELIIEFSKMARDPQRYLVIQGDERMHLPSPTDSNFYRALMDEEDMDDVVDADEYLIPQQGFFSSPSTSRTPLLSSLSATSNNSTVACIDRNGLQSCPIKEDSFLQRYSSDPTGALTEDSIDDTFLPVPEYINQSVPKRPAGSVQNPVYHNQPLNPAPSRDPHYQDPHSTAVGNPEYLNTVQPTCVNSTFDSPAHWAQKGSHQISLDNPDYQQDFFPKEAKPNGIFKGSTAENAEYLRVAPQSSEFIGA
UniProt P00533, with tags, fused parts or gaps DEL746-750/T790M/C797S limits assumed: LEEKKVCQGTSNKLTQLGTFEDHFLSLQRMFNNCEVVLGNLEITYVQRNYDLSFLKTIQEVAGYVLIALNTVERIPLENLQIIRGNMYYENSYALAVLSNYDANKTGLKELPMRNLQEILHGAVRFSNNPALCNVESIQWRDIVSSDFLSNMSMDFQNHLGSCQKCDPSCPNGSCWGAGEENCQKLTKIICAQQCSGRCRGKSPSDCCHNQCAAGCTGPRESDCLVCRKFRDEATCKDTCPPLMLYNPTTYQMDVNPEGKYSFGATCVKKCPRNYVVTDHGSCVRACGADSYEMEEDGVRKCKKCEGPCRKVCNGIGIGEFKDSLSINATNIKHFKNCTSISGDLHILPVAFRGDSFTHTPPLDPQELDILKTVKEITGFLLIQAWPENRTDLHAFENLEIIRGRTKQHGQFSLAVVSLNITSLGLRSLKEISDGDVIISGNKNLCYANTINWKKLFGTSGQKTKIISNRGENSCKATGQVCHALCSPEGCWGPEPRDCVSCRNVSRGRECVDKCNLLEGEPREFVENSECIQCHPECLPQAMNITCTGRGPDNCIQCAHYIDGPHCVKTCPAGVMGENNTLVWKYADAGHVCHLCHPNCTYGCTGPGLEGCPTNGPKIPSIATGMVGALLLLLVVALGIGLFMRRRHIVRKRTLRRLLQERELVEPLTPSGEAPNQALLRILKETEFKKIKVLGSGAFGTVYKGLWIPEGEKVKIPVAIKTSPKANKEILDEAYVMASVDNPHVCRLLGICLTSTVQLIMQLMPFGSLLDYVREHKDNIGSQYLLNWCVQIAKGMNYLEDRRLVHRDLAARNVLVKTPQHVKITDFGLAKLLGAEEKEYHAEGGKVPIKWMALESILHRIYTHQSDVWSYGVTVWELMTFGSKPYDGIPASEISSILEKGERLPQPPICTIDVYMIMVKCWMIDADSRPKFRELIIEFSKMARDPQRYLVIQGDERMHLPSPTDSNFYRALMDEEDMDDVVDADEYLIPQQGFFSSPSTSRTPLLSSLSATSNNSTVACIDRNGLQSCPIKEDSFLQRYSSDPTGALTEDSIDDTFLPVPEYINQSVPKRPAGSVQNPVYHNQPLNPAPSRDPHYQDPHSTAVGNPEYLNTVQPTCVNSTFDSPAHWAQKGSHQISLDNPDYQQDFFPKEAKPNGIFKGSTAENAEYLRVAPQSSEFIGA

According to patent US20260384450A1, “MACROCYCLIC AMINOPYRIDINE COMPOUNDS AS EGFR INHIBITORS” (published 2026):

How the values were obtained:
[1] = target: EGFR D19TMCS (del19/T790M/C797S) (Homo sapiens, UniProt P00533, C797S/DEL746-750/T790M); assay: Biochemical EGFR kinase assay (Lance Ultra TR-FRET), triple mutant del19/T790M/C797S
[2] = target: EGFR LRTMCS (L858R/T790M/C797S) (Homo sapiens, UniProt P00533, C797S/L858R/T790M); assay: Biochemical EGFR kinase assay (Lance Ultra TR-FRET), triple mutant L858R/T790M/C797S
[3] = target: EGFR D19CS (del19/C797S) (Homo sapiens, UniProt P00533, C797S/DEL746-750); assay: Biochemical EGFR kinase assay (Lance Ultra TR-FRET), double mutant del19/C797S
[4] = target: EGFR LRCS (L858R/C797S) (Homo sapiens, UniProt P00533, C797S/L858R); assay: Biochemical EGFR kinase assay (Lance Ultra TR-FRET), double mutant L858R/C797S
[5] = target: EGFR WT (Homo sapiens, UniProt P00533); assay: Biochemical EGFR kinase assay (Lance Ultra TR-FRET), wildtype
[6] = read-out: IC50, EGFR D19TMCS, Km, ATP at Km, EGFR del19/T790M/C797S
[7] = read-out: IC50, EGFR LRTMCS, 1 mM, ATP 1 mM, EGFR L858R/T790M/C797S
[8] = read-out: IC50, EGFR LRTMCS, Km, ATP at Km, EGFR L858R/T790M/C797S
[9] = read-out: IC50, EGFR-D19CS, 1 mM, ATP 1 mM, EGFR del19/C797S
[10] = read-out: IC50, EGFR-D19CS, Km, ATP at Km, EGFR del19/C797S
[11] = read-out: IC50, EGFR-LRCS, 1 mM, ATP 1 mM, EGFR L858R/C797S
[12] = read-out: IC50, EGFR-LRCS, Km, ATP at Km, EGFR L858R/C797S
[13] = read-out: IC50, EGFR WT, 1 mM, ATP 1 mM, EGFR wildtype
[14] = read-out: IC50, EGFR WT, Km, ATP at Km, EGFR wildtype
[15] = read-out: EGFR D19TMCS IC50, ATP 1 mM
[16] = read-out: EGFR D19TMCS IC50, ATP Km
[17] = read-out: EGFR LRTMCS IC50, ATP 1 mM
[18] = read-out: EGFR LRTMCS IC50, ATP Km
[19] = read-out: EGFR D19CS IC50, ATP 1 mM
[20] = read-out: EGFR D19CS IC50, ATP Km
[21] = read-out: EGFR LRCS IC50, ATP 1 mM
[22] = read-out: EGFR LRCS IC50, ATP Km
[23] = read-out: EGFR WT IC50, ATP 1 mM

| SMILES | IC50 [1, 6] [µM] | IC50 [2, 7] [µM] | IC50 [2, 8] [µM] | IC50 [3, 9] [µM] | IC50 [3, 10] [µM] | IC50 [4, 11] [µM] | IC50 [4, 12] [µM] | IC50 [5, 13] [µM] | IC50 [5, 14] [µM] | IC50 [1, 15] [µM] | IC50 [1, 16] [µM] | IC50 [2, 17] [µM] | IC50 [2, 18] [µM] | IC50 [3, 19] [µM] | IC50 [3, 20] [µM] | IC50 [4, 21] [µM] | IC50 [4, 22] [µM] | IC50 [5, 23] [µM] | IC50 ([5]; read-out: EGFR WT IC50, ATP Km) [µM] |
| --- | --- | --- | --- | --- | --- | --- | --- | --- | --- | --- | --- | --- | --- | --- | --- | --- | --- | --- | --- |
| Cc1nn(C)c2c1-c1nccc(n1)Nc1cc(c(-c3ccc(C(C)(C)F)cn3)cn1)NCC[C@@H](C)O2 | < 0.01 | < 0.01 | < 0.01 | < 0.01 | < 0.01 | 0.01 to 0.1 | < 0.01 | > 1 | 0.01 to 0.1 |  |  |  |  |  |  |  |  |  |  |
| Cn1ncc2c1OCC(C)(C)CNc1cc(ncc1-c1ccc(OC(F)F)cn1)Nc1ccnc-2n1 |  |  |  |  |  |  |  |  |  | < 0.01 | < 0.01 | < 0.01 | < 0.01 | 0.1 to 1 | 0.01 to 0.1 | 0.1 to 1 | 0.01 to 0.1 | > 1 | 0.1 to 1 |
| C[C@H]1CCOc2c(cnn2C)-c2nccc(n2)Nc2cc(c(-c3ccc(OC4CCN(C)CC4)cn3)cn2)N1 |  |  |  |  |  |  |  |  |  | < 0.01 | < 0.01 | < 0.01 | < 0.01 | < 0.01 | < 0.01 | < 0.01 | < 0.01 | 0.1 to 1 | < 0.01 |
| C[C@@H]1CCOc2c(cnn2C)-c2nccc(n2)Nc2cc(c(-c3cc(C(F)(F)F)n(C)n3)cn2)N1 |  |  |  |  |  |  |  |  |  | 0.1 to 1 | 0.01 to 0.1 | > 1 | 0.01 to 0.1 | > 1 | > 1 | > 1 | > 1 | > 1 | 0.1 to 1 |
| C[C@H]1CCOc2c(cnn2C)-c2nccc(n2)Nc2cc(c(-c3ccc(OC4CCN(CC(F)(F)F)CC4)cn3)cn2)N1 |  |  |  |  |  |  |  |  |  | < 0.01 | < 0.01 | 0.01 to 0.1 | < 0.01 | 0.1 to 1 | 0.01 to 0.1 | > 1 | 0.01 to 0.1 | > 1 | 0.01 to 0.1 |
| C[C@H]1CCOc2c(cnn2C)-c2nccc(n2)Nc2cc(c(-c3ccc(C(C)(O)C(F)(F)F)cn3)cn2)N1 (some centres unmarked) |  |  |  |  |  |  |  |  |  | < 0.01 | < 0.01 | < 0.01 | < 0.01 | 0.01 to 0.1 | < 0.01 | 0.1 to 1 | < 0.01 | > 1 | 0.01 to 0.1 |
| C[C@H]1CCOc2c(cnn2C)-c2nccc(n2)Nc2cc(c(-c3ccc(C(C)(C)O)cn3)cn2)N1 |  |  |  |  |  |  |  |  |  | < 0.01 | < 0.01 | < 0.01 | < 0.01 | < 0.01 | < 0.01 | 0.01 to 0.1 | < 0.01 | > 1 | < 0.01 |
| Cc1nn(C)c2c1-c1nccc(n1)Nc1cc(c(-c3ccc(S(C)(=O)=O)cn3)cn1)NCC[C@H](C)O2 | < 0.01 | < 0.01 | < 0.01 | < 0.01 | < 0.01 | 0.01 to 0.1 | < 0.01 | > 1 | < 0.01 |  |  |  |  |  |  |  |  |  |  |

The next lines start with the values.

| IC50 [1, 6] [µM] | IC50 [2, 7] [µM] | IC50 [2, 8] [µM] | IC50 [3, 9] [µM] | IC50 [3, 10] [µM] | IC50 [4, 11] [µM] | IC50 [4, 12] [µM] | IC50 [5, 13] [µM] | IC50 [5, 14] [µM] | IC50 [1, 15] [µM] | IC50 [1, 16] [µM] | IC50 [2, 17] [µM] | IC50 [2, 18] [µM] | IC50 [3, 19] [µM] | IC50 [3, 20] [µM] | IC50 [4, 21] [µM] | IC50 [4, 22] [µM] | IC50 [5, 23] [µM] | IC50 ([5]; read-out: EGFR WT IC50, ATP Km) [µM] | SMILES |
| --- | --- | --- | --- | --- | --- | --- | --- | --- | --- | --- | --- | --- | --- | --- | --- | --- | --- | --- | --- |
|  |  |  |  |  |  |  |  |  | < 0.01 | < 0.01 | 0.01 to 0.1 | < 0.01 | 0.01 to 0.1 | < 0.01 | 0.01 to 0.1 | 0.01 to 0.1 | > 1 | > 1 | Cc1nn(C)c2c1-c1nccc(n1)Nc1cc(c(-c3ccc(C(F)F)cn3)cn1)NCC[C@H](C)O2 |
|  |  |  |  |  |  |  |  |  | 0.1 to 1 | 0.01 to 0.1 | 0.1 to 1 | 0.01 to 0.1 | > 1 | > 1 | > 1 | 0.1 to 1 | > 1 | > 1 | C[C@H]1CCOc2c(cnn2C)-c2nccc(n2)Nc2cc(c(-c3ncccc3OCC(F)F)cn2)N1 |
| < 0.01 | < 0.01 | < 0.01 | 0.01 to 0.1 | < 0.01 | 0.01 to 0.1 | < 0.01 | > 1 | 0.01 to 0.1 |  |  |  |  |  |  |  |  |  |  | Cc1nn(C)c2c1-c1nccc(n1)Nc1cc(c(-c3ncc(CN4CCC(C)(O)CC4)cc3F)cn1)N[C@@H](C)CCO2 |

Where two headings read alike, the source gives them in different places.
